Amino acid sequences for entries named in this document (tags omitted).
UniProt P14842, whole entry: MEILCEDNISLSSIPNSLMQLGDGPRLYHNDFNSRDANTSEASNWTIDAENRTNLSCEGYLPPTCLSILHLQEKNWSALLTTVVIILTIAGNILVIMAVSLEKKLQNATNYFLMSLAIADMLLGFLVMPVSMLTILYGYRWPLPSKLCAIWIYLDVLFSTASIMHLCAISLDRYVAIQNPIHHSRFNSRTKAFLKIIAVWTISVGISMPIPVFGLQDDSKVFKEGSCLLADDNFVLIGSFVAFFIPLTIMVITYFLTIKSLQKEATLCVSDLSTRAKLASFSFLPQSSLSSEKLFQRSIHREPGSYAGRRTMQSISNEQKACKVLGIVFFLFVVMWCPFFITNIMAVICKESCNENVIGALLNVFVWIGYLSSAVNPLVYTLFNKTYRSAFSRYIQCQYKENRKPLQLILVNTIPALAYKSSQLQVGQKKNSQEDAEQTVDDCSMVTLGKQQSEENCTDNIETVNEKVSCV

According to patent US4533665A, “[[Bis(aryl)methylene]-1-piperidinyl]alkyl-pyrimidinones” (Janssen Pharmaceutica, priority 1984, dated 1985):

Target: T1, S2-receptor (Rattus norvegicus, UniProt P14842)
T1 construct: Caudal arteries from fasted male rats; from tissue; host or cells: rat caudal artery, helical strips
Test: antagonistic activity on the effect of serotonin on the caudal artery of the rat (caudal artery test)
Settings: rat caudal artery strips; serotonin 40 ng/ml; 5 minutes after adding the drug; read-out: ED50 (minimal concentration which reduces the amplitude of the serotonin-induced contraction to at least 50% of its normal value) (converted)
Text: The S2 -antagonistic activity of the compounds of formula (I) their possible stereochemically isomeric forms and their pharmaceutically acceptable acid addition salts is evidenced by the experimental data obtained in the caudal actery test.
ANTAGONISTIC ACTIVITY ON THE EFFECT OF SEROTONIN ON THE CAUDAL ARTERY OF THE RAT
Caudal arteries from fasted male rats (210-235 g) were used in the test. Two helical strips having a length of 5-6 cm and a width of 2 mm. were obtained from each artery and mounted vertically in a 100 ml organ bath containing an oxygenated Krebs-Henseleit solution. Submaximal contractions of the arterial strips were produced by adding single doses of serotonin (40 ng/ml) to the organ bath for 2 minutes with each time an interval of 10 minutes. The amplitude of the contraction was measured before and 5 minutes after adding the drug. After washing out, the agonist was added again three times in order to see whether the contraction was restored and normalized. […] In this connection the ED50 -values are the minimal concentrations of the concerned drugs which reduce the amplitude of the contraction to at least 50% of its normal value.

IC50: 0.168 pM
SMILES: Cc1nc2sccn2c(=O)c1CCN1CCC(=C(c2ccc(F)cc2)c2ccc(F)cc2)CC1 [Compound 1, 6-[2-[4-[bis(4-fluorophenyl)methylene]-1-piperidinyl]ethyl]-7-methyl-5H-thiazolo[3,2-a]pyrimidin-5-one]
